The results in this text go back to patent US20120283303A1, “USE OF N-AMINOIMIDAZOLE CYTOPROTECTIVE COMPOUNDS FOR TREATING CELL DEATH AND/OR GSK-3 MEDIATED DISEASES” (K.U.LEUVEN RESEARCH AND DEVELOPMENT, priority 2006, published 2012).

For the assay, the system named is Peripheral blood mononuclear cells (PBMCs). The assay can be described thus: PBMC survival (viable cell count, trypan blue exclusion). Format: cell-based, human. The note with it: IL-2 10 U/ml; stimulated and non stimulated cells. Here is the method: Peripheral blood mononuclear cells (PBMCs) from healthy donors were isolated by density centrifugation (Lymphoprep; Nycomed Pharma, AS Diagnostics, Oslo, Norway). For the “non-stimulated” conditions (NS) the cells were cultivated at a density of 1,750,000 cells per ml in RPMI-1640 supplemented with 2 mM L-glutamine, 15% FCS and 0.1% NaHCO3 for 3 days. The cells for the “stimulated” condition were treated with 2 μg/ml phytohemagglutin (PHA) (Sigma Chemical Co., Bornem, Belgium) and 5 U/ml of recombinant human IL-2 (Roche, Brussels, Belgium) for 3 days. At day 0 of the experiment, the NS and activated cells (PHA-stimulated blasts) were washed with PBS and were pelleted by centrifugation. The cells were re-suspended in the above described medium and equal number of cells were distributed over the 75 cm^2 culture flasks at a density of approximately 1×10^6 cells per ml and were supplemented with the required quantities of NAIM derivative in the presence or absence of IL-2. The number of viable cells was counted based on the trypan blue exclusion method. The evolution of the number of cells was followed over a period of approximately 2 weeks.

With “IL-2: recombinant human IL-2 (Roche, Brussels, Belgium)”, the “PBMC cell count, IL-2 only” value is listed as “increased”.
